# Binding of CDR-mutated scFvs to a peptide of the spike HR2 region

Source: Li et al. 2023 (doi:10.1038/s41467-023-39022-2), MIT Lincoln Laboratory and A-Alpha Bio; data file from the FLAb repository.

Antigen: PDVDLGDISGINAS, a 14-residue peptide of the SARS-CoV-2 spike HR2 region.

Parent: Ab-14, a human scFv built as VH, three GGGGS repeats, VL. Only the CDRs of the light chain vary.
VH: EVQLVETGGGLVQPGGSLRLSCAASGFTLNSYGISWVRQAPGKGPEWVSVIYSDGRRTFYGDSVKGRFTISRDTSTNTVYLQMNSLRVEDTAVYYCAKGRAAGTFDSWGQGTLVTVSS
VL: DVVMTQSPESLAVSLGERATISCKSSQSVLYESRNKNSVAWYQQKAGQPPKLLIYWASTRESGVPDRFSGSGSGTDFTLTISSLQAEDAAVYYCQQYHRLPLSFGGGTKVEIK

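The starting antibody came from a phage panning campaign against this peptide. Designed CDR sequences, proposed from the first random library and measured here. Their group label is 14L_En_Gibbs (En: ensemble of fine-tuned language models; Gibbs: Gibbs sampling). The assay is AlphaSeq: two haploid yeast populations carry antibody and antigen on their surface. Mating (16 h, 30 °C) was followed by selection of diploids and sequencing of their barcodes. A regression on co-assayed BCL2-family reference pairs converts the normalised counts of each replicate to an apparent Kd. There are six technical replicates.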

Each variant is given by its three light chain CDRs, as the data file delimits them; those of the parent are KSSQSVLYESRNKNSVA, WASTRES, QQYHRLPLS.
Numbers give log10(Kd / nM), so 0 is 1 nM and 3 is 1 µM. Smaller is tighter.
A mean of the replicates is given; it leaves out those without a signal.
A pair that was not seen in that replicate is written "ND"; this usually means weak binding, but a binder can also be missed.
The range of this assay differs from that of the first round, and the authors advise against merging the two.

CDR-L1	CDR-L2	CDR-L3	log10 Kd (nM) by replicate	mean log10 Kd (nM)	control signals
NISYLQGVSTNSVNNVA	QASKRAP	QYYQRLPLC	0.82 / 0.96 / 1.22 / 0.95 / 0.93 / 1.32	1.03	1/18 (3.29)
TIDDEMPSHGFKWNSIA	GVATVLQ	QQYDRLPLS	1.10 / 1.79 / 1.70 / 1.32 / 1.02 / 1.00	1.32	0/18
KLFDRTREGIANQNNVA	EDNDVSV	QQYSILPLT	ND / ND / ND / ND / ND / ND	ND	0/18
QLSVFELQGMGWMQSIA	QADHRTE	QQFARLPLV	ND / ND / ND / ND / ND / ND	ND	0/18
HVHMEMAEWKEILNNVA	DASMRFA	QQYFRLPLG	2.48 / 1.08 / 1.17 / 0.82 / 1.02 / 1.34	1.32	1/18 (2.72)
KMSVHLYDAKNRDMSIA	DEELHTI	QQYNRLPFS	ND / ND / ND / ND / ND / ND	ND	0/18
KLAMYLEMWADTYHGVA	DANHKAS	QQYNRLPLS	0.25 / -0.03 / -0.15 / -0.18 / 0.05 / -0.13	-0.03	0/18
ILSDHAVNQYDEADSIA	DKTETAV	QQYARLPLS	1.15 / 1.65 / 1.15 / 1.20 / 1.23 / 1.38	1.29	1/18 (2.42)
MVNTNLVHQAQRDNSIA	EADMVAA	QDYDRLPLI	ND / 1.82 / ND / ND / ND / ND	1.82	0/18
KLSSEYFDSYGERQAVA	ENEATSN	QQYSLLPLS	1.57 / 1.74 / 1.23 / 1.98 / 1.79 / 2.56	1.81	0/18
WLSMWEQSGTRGYSSVA	DTDVRMA	QQYFRLPLS	0.42 / 0.56 / 0.57 / 0.22 / 0.33 / 0.60	0.45	1/18 (2.99)
DLTGQFNGASQQQHSVA	HGVEKID	QQYVRLPLA	-0.12 / 0.15 / -0.31 / -0.51 / -0.42 / -0.26	-0.25	0/18
QLDLRMNEQGMQPSAIA	GATNRFT	QQYQKLPLS	0.47 / 0.22 / 0.31 / 0.10 / 0.18 / 0.38	0.28	1/18 (3.46)
TLMHHQDYYGEEKKSIA	NAIIKNE	QQYSRLPLA	0.93 / 0.53 / 0.69 / 0.39 / 0.63 / 0.55	0.62	1/18 (2.65)
NIVGRVEDKQTETANIA	DAHCRAG	QQYSRLPLS	-0.48 / -0.31 / -0.14 / -0.84 / -0.60 / -0.62	-0.50	0/18
RLTEHTSERAYADASVA	NASTRND	QQYHRLPLA	1.41 / 1.34 / 0.76 / 1.04 / 1.00 / 1.17	1.12	1/18 (2.24)
KIHELGKGNWKTANNIA	QTDIRMS	QSYNRLPLS	2.30 / 2.53 / 1.88 / 3.24 / 1.45 / 1.82	2.20	1/18 (2.72)
QFDLFENYQGMQNANIA	GATNRHT	QQYQKLPLS	0.03 / 0.08 / -0.09 / -0.22 / -0.18 / -0.14	-0.09	0/18
KMRVSLLQGIYRADSIA	STDIRVL	QQYYHLPLA	1.18 / 1.14 / 1.01 / 1.20 / 1.14 / 1.14	1.14	1/18 (3.44)
KLEDSNRWHLRGTSAVA	QASTRAA	QQYQRLPLL	0.77 / 0.41 / 0.45 / 0.13 / 0.38 / 0.41	0.43	1/18 (2.98)
NITEIFDNMGDQRSNVA	NGETLFH	QQYDRLPFL	0.77 / 0.40 / 0.56 / 0.41 / 0.54 / 0.85	0.59	2/18 (2.76)
YVSIDAAEGRNQQSAVA	GVSYKEK	QQYYKLPLS	0.50 / 0.58 / 0.41 / 0.78 / 0.55 / 0.84	0.61	1/18 (2.51)
FIMHFGEESNLNSKNIA	AKDTRVD	QQYNRLPLS	0.01 / 0.12 / -0.14 / -0.09 / -0.17 / 0.05	-0.04	3/18 (2.44)
MITAAMNAYGGSRSNVA	DKAISVN	QQYHHLPLS	0.65 / 0.77 / 0.75 / 0.96 / 0.93 / 1.44	0.92	2/18 (2.28)
NLGQKMSLEYEQRNSIA	DMTVREY	QQYSRIPLI	0.41 / 0.74 / 0.29 / 0.80 / 0.99 / 0.87	0.68	1/18 (2.14)
KLYERGEISSKVDRNIA	EMSTRCE	QSYQRLPLS	0.64 / 0.39 / 0.64 / 0.57 / 0.70 / 0.72	0.61	0/18
SVSNLGMVPSVWENSIA	DTTIVEE	QQYSRLPLL	0.07 / 0.59 / 0.49 / 0.63 / 0.32 / 0.49	0.43	2/18 (1.82)
KLVGVDDNDPNPSHNIA	DVSTLDN	QQYHRLPLD	0.59 / 0.36 / 0.52 / 0.59 / 0.68 / 0.85	0.60	2/18 (2.43)
TIDLWTSYGNGENKAIA	DVSIKDY	QQYARLPLL	1.37 / 1.28 / 1.74 / 1.51 / 1.58 / 1.68	1.53	0/18
KIYELGKGNIKTANNIA	QTDIRMS	QSYNRLPLS	1.10 / 0.88 / 1.19 / 1.17 / 1.10 / 1.08	1.09	0/18
RVTNEFGKEMERKNSVA	HTDQRCM	QQYFRLPLI	1.01 / 0.61 / 0.65 / 0.68 / 0.55 / 0.58	0.68	3/18 (2.49)
RMDMAMPHAHSNINSIA	EDAIQAD	QQYDRLPLS	0.79 / ND / 0.48 / 1.25 / 1.36 / ND	0.97	0/18
MLKMENEEFNQDKNSVA	EAVEKES	QQYHRLPII	1.60 / 2.05 / 1.53 / 1.41 / 2.22 / 1.33	1.69	2/18 (2.17)
HFSVETMEFMGKNKNIA	EVSTTML	QQYARLPFM	0.64 / 0.68 / 0.64 / 1.07 / 0.49 / 0.90	0.74	1/18 (3.52)
MLTWDDDHETSRQNSIA	DAHERNT	QQYHQLPLI	0.09 / -0.04 / 0.19 / -0.14 / -0.18 / 0.06	0.00	0/18
NLQNIGMENSVWKNAIA	DVNIKES	QQYFRLPLL	1.00 / 1.17 / 0.57 / 0.56 / 0.95 / 0.95	0.87	0/18
NLYMDAAEFVMMGESIA	DATISYQ	QQYHRLPLT	1.46 / 0.37 / 1.51 / 1.68 / 1.19 / 1.62	1.31	0/18
KLYYHEVGLVNGQNSIA	ETDQLTF	QQYSHLPLS	1.73 / 1.44 / 1.53 / 1.44 / 2.31 / 0.52	1.50	0/18
NLMSHQSELSVWKYSIA	EASIRLS	QQYFRLPLA	1.36 / 0.42 / 0.74 / 0.52 / 0.42 / 0.71	0.69	0/18
DLTVSDNNGSQLENNIA	QGVEKCE	QQYSRLPLA	1.11 / 1.32 / 0.80 / 0.41 / 1.01 / 0.53	0.86	0/18
FMEMDFDGNSVNRNSIA	SSEVVTR	QHYYRLPLS	ND / ND / ND / ND / ND / ND	ND	0/18
NLVEMEGTNQTAGGNIA	SVDQRMS	QQYQRLPLI	1.72 / 1.39 / 1.30 / 1.71 / 1.78 / 1.44	1.56	1/18 (4.44)
KLMNSLDAFKQWEDNVA	EVEHKVA	QQYYHLPLT	ND / ND / ND / ND / ND / ND	ND	0/18
NLSWKQSGFENEWMAVA	NTSERNA	QQYARLPLS	0.92 / 0.63 / 0.42 / 0.16 / 0.51 / 0.49	0.52	0/18
KLMTQVGHQMDHKNSIA	EVDMVAQ	QQYMHLPLI	0.61 / 0.91 / 1.19 / 0.82 / 0.68 / 0.67	0.81	1/18 (2.19)
RINIAGMTVDEHYSNVA	AQRLTSE	QQYFRLPLS	1.02 / 1.29 / 1.23 / 1.34 / 0.52 / 1.11	1.09	1/18 (1.78)
KLHAYTQGFKTADASIA	EISYRAI	QQYGRLPLS	ND / ND / ND / ND / 4.66 / 2.40	3.53	2/18 (2.52)
NLGFVDDNDNRGMMSVA	DANTVGE	QQYNRLPLA	0.90 / 0.98 / 0.85 / 0.56 / 1.15 / 0.80	0.87	1/18 (1.50)
HIDDFEPSEGEKWNAIA	GDATRLQ	QAYARLPLS	2.19 / 1.92 / 1.76 / 2.89 / 2.30 / 2.79	2.31	1/18 (3.03)
KITDKFLGEGNGRQNIA	HAMVAVE	QQYQQLPLA	0.12 / 0.16 / 0.10 / 0.10 / -0.07 / 0.19	0.10	2/18 (2.62)

Again, the first 3 entries without any signal:

CDR-L1	CDR-L2	CDR-L3	log10 Kd (nM) by replicate	mean log10 Kd (nM)	control signals
KLFDRTREGIANQNNVA	EDNDVSV	QQYSILPLT	ND / ND / ND / ND / ND / ND	ND	0/18
QLSVFELQGMGWMQSIA	QADHRTE	QQFARLPLV	ND / ND / ND / ND / ND / ND	ND	0/18
KMSVHLYDAKNRDMSIA	DEELHTI	QQYNRLPFS	ND / ND / ND / ND / ND / ND	ND	0/18

Background: pairings of all light chain designs with three empty control strains gave a value in 4% of cases (median 2.64, 5th percentile 1.59). Values in that range, when seen in few replicates, are hard to tell from nonspecific mating. The control count says in how many pairings with the empty strains this scFv gave a signal, with their mean in brackets.
The authors averaged sequences with at least three values out of six and counted those with two or fewer as poor binders.
Of ten entries with the parent sequence, four were seen in most replicates (averages 0.34 to 2.37), three in one and three in none, so single entries are noisy.